Assay: Whitening efficacy in a mouthwash type setup
Details: short 1 min exposure times

Compound: O=S(=O)([O-])O[O-].[K+].[K+] [MPS, potassium peroxymonosulfate]
- whitening result compared with 2% hydrogen peroxide rinse: on par with the 2% hydrogen peroxide rinse

— patent US20170172880A1, “Fast Dissolving Peroxymonosulfate Composition” (Colgate-Palmolive Company, priority 2015, published 2017)
